Measurements: US6828294B2, “High retention sanitizer systems” (FMC Corporation, priority 2001, dated 2004)

Test: Stability of PAA in compositions and in presence of chelators (PAA test strips)
Method: A sanitizer composition containing 0.25% SLS, 0.05% LA, 0.125% magnesium sulfate, and 85 ppm PAA was prepared in the 300 ppm total hardness water described in Example 8. This solution was applied to a stainless steel cabinet (34.5 in.×72 in.) in the meat pilot plant with a FOAM-IT® 5 unit using the driest foam setting.
This Example illustrates the effect of chelating agent on sanitizer compositions. The amount of chelator added is intended to chelate a concentration of ions corresponding to 300 ppm hard water, which corresponds to 3 millimolar. Because water will often have a hardness of less than 300 ppm, leaving an excess of chelator, it is important to evaluate the stability of PAA with respect to the chelator. The excess chelator could cause increases in pH, which would decrease the amount of PAA present according to the reaction (Preparation, Properties, Reactions and Uses of Organic Peracids and their Salts, FMC Corporation, Inorganic Chemicals Division, New York, N.Y., 1964, p. 34):
Therefore, in anticipation of the worst case where soft water is used to prepare the solution from which the foam is generated, the stability of PAA in the presence of at least 3 millimolar of chelator was evaluated.
0.125 g of Na4EDTA and 0.170 g of 5% PAA were added to 100 g of DI water.
0.161 g of Na3EDTA and 0.170 g of 5% PAA were added to 100 g of DI water. […]

Substance: sodium salts of ethylene diamine tetracetic acid
- stability of PAA in the presence of the chelator: rapidly decomposes
